Test results as given in patent US20160151503A1, “COMPOSITIONS AND PREPARATION METHODS OF LOW MELTING IONIC SALTS OF POORLY-WATER SOLUBLE DRUGS” (MW ENCAP LIMITED, priority 2013, published 2016).

Assay: Drug solubility in exemplar lipid formulations (SEDDS) and individual excipients
Conditions: Table 5 Dextromethorphan and Metformin

## Dextromethorphan Decylsulfate (Mixture of Isomers [Cation])
  Solubility in MC SEDDS (mg/g) Free base equiv.: 50 to 100 mg/g
